The inhibition is the drop in the measured response relative to a control, in per cent.

Chains of the proteins cited; added tags and fusions are not shown.
UniProt Q13547, whole entry: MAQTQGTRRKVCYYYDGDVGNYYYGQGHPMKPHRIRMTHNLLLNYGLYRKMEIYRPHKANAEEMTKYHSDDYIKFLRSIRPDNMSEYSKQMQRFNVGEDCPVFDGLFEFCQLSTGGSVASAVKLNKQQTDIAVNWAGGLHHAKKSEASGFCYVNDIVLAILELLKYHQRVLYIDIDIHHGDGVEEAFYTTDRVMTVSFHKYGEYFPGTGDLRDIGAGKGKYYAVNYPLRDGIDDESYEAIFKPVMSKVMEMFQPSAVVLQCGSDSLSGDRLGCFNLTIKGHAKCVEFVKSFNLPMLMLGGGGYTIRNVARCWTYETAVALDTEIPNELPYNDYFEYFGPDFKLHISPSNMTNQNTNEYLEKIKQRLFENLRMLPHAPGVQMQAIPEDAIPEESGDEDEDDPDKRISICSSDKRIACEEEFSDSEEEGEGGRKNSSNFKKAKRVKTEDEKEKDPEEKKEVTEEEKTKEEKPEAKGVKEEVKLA

Consider 4 molecules from ChEMBL document CHEMBL6134903, “Challenging triple negative breast cancer through HDAC6 selective inhibition: Novel cap-group identification, structure-activity relationships, computational and biological studies” (Eur J Med Chem, 2025).

This test deals with Histone deacetylase 1 (Homo sapiens) (UniProt Q13547). Particulars: Sf9, dose 10.0 µM, time 30.0 min.

`O=C(NO)c1ccc(CN2CN(c3ccccc3)C3(CCN(Cc4ccc(-c5ccccc5)o4)CC3)C2=O)c(F)c1` registered an inhibition of 60%.
In turn, `O=C(NO)c1ccc(CN2CN(c3ccccc3)C3(CCN(C(=O)c4ccc(-c5ccccc5)o4)CC3)C2=O)c(F)c1` registered an inhibition of 48%.
The result for `O=C(NO)c1cc(F)c(CN2CN(c3ccccc3)C3(CCNCC3)C2=O)c(F)c1` reads 39%; that for `O=C(NO)c1ccc(CN2CN(c3ccccc3)C3(CCN(C(=O)NCc4ccco4)CC3)C2=O)c(F)c1`, 41%.
